{
  "sequences": {"note": "Protein sequences, listed by entry. Tags and fused reporters are not part of them.", "UniProt P21397, whole entry": "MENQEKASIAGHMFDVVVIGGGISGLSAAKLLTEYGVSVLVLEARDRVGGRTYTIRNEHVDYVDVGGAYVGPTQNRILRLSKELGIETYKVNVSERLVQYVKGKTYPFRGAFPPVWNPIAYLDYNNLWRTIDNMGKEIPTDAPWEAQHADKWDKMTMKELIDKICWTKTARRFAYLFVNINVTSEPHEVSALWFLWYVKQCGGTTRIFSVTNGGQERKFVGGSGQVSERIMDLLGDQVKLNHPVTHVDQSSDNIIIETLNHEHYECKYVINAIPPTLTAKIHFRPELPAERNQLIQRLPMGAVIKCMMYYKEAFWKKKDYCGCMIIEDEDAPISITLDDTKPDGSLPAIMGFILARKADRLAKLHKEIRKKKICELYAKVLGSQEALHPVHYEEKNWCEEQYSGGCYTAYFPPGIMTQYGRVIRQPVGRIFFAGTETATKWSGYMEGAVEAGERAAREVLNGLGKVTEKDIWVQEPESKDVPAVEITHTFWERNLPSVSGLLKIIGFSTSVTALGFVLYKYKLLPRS"},
  "source": "ChEMBL document CHEMBL5143673",
  "about": "“The evaluation of N-propargylamine-2-aminotetralin as an inhibitor of monoamine oxidase” (Bioorg Med Chem Lett, 2022)",
  "molecular_target": "Amine oxidase [flavin-containing] A (Homo sapiens, UniProt P21397)",
  "assay": "Inhibition of human recombinant MAOA using kynuramine substrate incubated for 20 mins by fluorescence spectrophotometry",
  "format": "toxicity",
  "data": [
    {"compound": "C#CCN(C)Cc1ccccc1", "note": "[PARGYLINE]", "values": [
      {"measurement": "IC50", "result": 15.6, "unit": "µM"}
    ]}
  ]
}
